Data reported in PubChem BioAssay (NCI).
Some results for these compounds are left out of this collection, so the calls shown say nothing about other tests.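 1) Cells in 96-well plates. 2) Compound, 48 h, 5 concentrations. 3) Linear interpolation between surrounding doses. 4) Unreached endpoint = highest concentration. The concentration for full growth arrest is given as TGI.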

Columns and labels:
Assay in all cases: NCI anticancer screen, dose series, 48 h
A498 renal = tested on: A498 renal
HL-60(TB) leukemia = tested on: HL-60(TB) leukemia
U251 CNS = tested on: U251 CNS
COLO 205 colon = tested on: COLO 205 colon
CCRF-CEM leukemia = tested on: CCRF-CEM leukemia
SK-MEL-5 melanoma = tested on: SK-MEL-5 melanoma
SR leukemia = tested on: SR leukemia
LOX IMVI melanoma = tested on: LOX IMVI melanoma
SK-MEL-28 melanoma = tested on: SK-MEL-28 melanoma
NCI-H23 lung = tested on: NCI-H23 lung
NCI-H460 lung = tested on: NCI-H460 lung
SF-295 CNS = tested on: SF-295 CNS
IGROV1 ovarian = tested on: IGROV1 ovarian
BT-549 breast = tested on: BT-549 breast
SNB-75 CNS = tested on: SNB-75 CNS
MDA-MB-435 = tested on: MDA-MB-435
KM12 colon = tested on: KM12 colon
PC-3 prostate = tested on: PC-3 prostate
NCI-H226 lung = tested on: NCI-H226 lung
RXF 393 renal = tested on: RXF 393 renal
SW-620 colon = tested on: SW-620 colon
HCT-15 colon = tested on: HCT-15 colon
A549 NSCLC = tested on: A549 NSCLC
M14 melanoma = tested on: M14 melanoma
SK-OV-3 ovarian = tested on: SK-OV-3 ovarian
UACC-62 melanoma = tested on: UACC-62 melanoma
OVCAR-5 ovarian = tested on: OVCAR-5 ovarian
MDA-N = tested on: MDA-N
UO-31 renal = tested on: UO-31 renal
HOP-62 NSCLC = tested on: HOP-62 NSCLC
SF-268 CNS = tested on: SF-268 CNS
K-562 leukemia = tested on: K-562 leukemia
786-0 renal = tested on: 786-0 renal
UACC-257 melanoma = tested on: UACC-257 melanoma
RPMI-8226 leukemia = tested on: RPMI-8226 leukemia
NCI/ADR-RES ovarian = tested on: NCI/ADR-RES ovarian
NCI-H522 lung = tested on: NCI-H522 lung
SNB-19 CNS = tested on: SNB-19 CNS
OVCAR-8 ovarian = tested on: OVCAR-8 ovarian
DU-145 prostate = tested on: DU-145 prostate
NCI-H322M lung = tested on: NCI-H322M lung
TK-10 renal = tested on: TK-10 renal
OVCAR-3 ovarian = tested on: OVCAR-3 ovarian
HCC-2998 colon = tested on: HCC-2998 colon
SN12C renal = tested on: SN12C renal
MOLT-4 leukemia = tested on: MOLT-4 leukemia
HT29 colon = tested on: HT29 colon
MCF7 breast = tested on: MCF7 breast
OVCAR-4 ovarian = tested on: OVCAR-4 ovarian
MDA-MB-231 breast = tested on: MDA-MB-231 breast
T-47D breast = tested on: T-47D breast
HCT-116 colon = tested on: HCT-116 colon
HS 578T breast = tested on: HS 578T breast
ACHN renal = tested on: ACHN renal
SK-MEL-2 melanoma = tested on: SK-MEL-2 melanoma
MALME-3M melanoma = tested on: MALME-3M melanoma

`O=C(OCCC1=C2CCN(CC2)C1)C(O)(c1ccccc1)C1CCCC1` (stereo unspecified) was tested, and the TGI (A498 renal) was over 100 µM, the TGI (HL-60(TB) leukemia) was 56.3 µM and the TGI (U251 CNS) was over 100 µM. It also gave a TGI (COLO 205 colon) of 37.7 µM, a TGI (CCRF-CEM leukemia) of 33.7 µM and a TGI (SK-MEL-5 melanoma) of 25 µM. It also gave a TGI (SR leukemia) of over 100 µM, a TGI (LOX IMVI melanoma) of over 100 µM and a TGI (SK-MEL-28 melanoma) of 50.2 µM. For the same compound, the TGI (NCI-H23 lung) was over 100 µM, the TGI (NCI-H460 lung) was over 100 µM and the TGI (SF-295 CNS) was 49.7 µM. It also gave a TGI (IGROV1 ovarian) of over 100 µM, a TGI (BT-549 breast) of over 100 µM and a TGI (SNB-75 CNS) of 99.2 µM. It also gave a TGI (MDA-MB-435) of over 100 µM, a TGI (KM12 colon) of over 100 µM and a TGI (PC-3 prostate) of over 100 µM. The TGI (NCI-H226 lung) was over 100 µM, the TGI (RXF 393 renal) was 77.6 µM and the TGI (SW-620 colon) was 52.3 µM. The TGI (HCT-15 colon) was over 100 µM, the TGI (A549 NSCLC) was 72.6 µM and the TGI (M14 melanoma) was 30.7 µM. The TGI (SK-OV-3 ovarian) was over 100 µM, the TGI (UACC-62 melanoma) was 35.9 µM and the TGI (OVCAR-5 ovarian) was over 100 µM. It also gave a TGI (MDA-N) of over 100 µM, a TGI (UO-31 renal) of over 100 µM and a TGI (HOP-62 NSCLC) of 59.2 µM. The TGI (SF-268 CNS) was 29.9 µM, the TGI (K-562 leukemia) was 13.3 µM and the TGI (786-0 renal) was 33 µM. For the same compound, the TGI (UACC-257 melanoma) was 55.2 µM, the TGI (RPMI-8226 leukemia) was 61.8 µM and the TGI (NCI/ADR-RES ovarian) was over 100 µM. It also gave a TGI (NCI-H522 lung) of over 100 µM, a TGI (SNB-19 CNS) of over 100 µM and a TGI (OVCAR-8 ovarian) of over 100 µM. The TGI (DU-145 prostate) was over 100 µM, the TGI (NCI-H322M lung) was over 100 µM and the TGI (TK-10 renal) was over 100 µM. For the same compound, the TGI (OVCAR-3 ovarian) was over 100 µM, the TGI (HCC-2998 colon) was over 100 µM and the TGI (SN12C renal) was over 100 µM. The TGI (MOLT-4 leukemia) was 86.5 µM, the TGI (HT29 colon) was over 100 µM and the TGI (MCF7 breast) was 40.7 µM. It also gave a TGI (OVCAR-4 ovarian) of over 100 µM, a TGI (MDA-MB-231 breast) of over 100 µM and a TGI (T-47D breast) of 56.9 µM. The TGI (HCT-116 colon) was 70.8 µM, the TGI (HS 578T breast) was over 100 µM and the TGI (ACHN renal) was 62.1 µM. For the same compound, the TGI (SK-MEL-2 melanoma) was 55.3 µM and the TGI (MALME-3M melanoma) was 51.4 µM.
